Values quoted from earlier work as cited in patent publication US20050159359A1, “Methods and compositions for derepression of IAP-inhibited caspase” (The Burnham Institute, priority 2001, published 2005).
pKi: −log10 of the molar value.

Target: caspase-3 and -7
Details: reported; read-out: Ki for inhibition of caspase-3 and -7; cited from earlier work

In the case of “cIAP1: cellular IAP protein, human inhibitor of apoptosis protein”, the pKi is listed as 8.00 to 9.70.

For “XIAP: X chromosome linked IAP, human inhibitor of apoptosis protein”, the pKi is given as 8.00 to 9.70.
